# Measured values from patent US20230095701A1, “Use of Albiflorin in Treatment of Coronavirus Pneumonia” (priority 2020, published 2023).
# Legend:
# [1] = test system: PGF2α and 20-HETE; assay: Inflammatory mediators in hippocampus of CUMS rats; conditions: 7 days, 7 mg/kg, FIG. 10
# [2] = test system: cPLA2; assay: cPLA2 in hippocampus of chronic unpredictable mild stress (CUMS) rats; conditions: 7 days, 3.5 mg/day, 7 mg/day, 14 mg/day, P<0.01, dose dependency, FIG. 9
compound,measurement,setting,value
C[C@]12C[C@@H](O)[C@@H]3C[C@@]1(O[C@@H]1O[C@H](CO)[C@@H](O)[C@H](O)[C@H]1O)[C@@]3(COC(=O)c1ccccc1)C(=O)O2 [Albiflorin],content of inflammatory mediators PGF2α and 20-HETE,[1],reduce
same,phospholipase A2 (cPLA2) in the hippocampus,[2],significantly decreased
